{"sequences": {"note": "Protein sequences, listed by entry. Tags and fused reporters are not part of them.", "UniProt P34972, whole entry": "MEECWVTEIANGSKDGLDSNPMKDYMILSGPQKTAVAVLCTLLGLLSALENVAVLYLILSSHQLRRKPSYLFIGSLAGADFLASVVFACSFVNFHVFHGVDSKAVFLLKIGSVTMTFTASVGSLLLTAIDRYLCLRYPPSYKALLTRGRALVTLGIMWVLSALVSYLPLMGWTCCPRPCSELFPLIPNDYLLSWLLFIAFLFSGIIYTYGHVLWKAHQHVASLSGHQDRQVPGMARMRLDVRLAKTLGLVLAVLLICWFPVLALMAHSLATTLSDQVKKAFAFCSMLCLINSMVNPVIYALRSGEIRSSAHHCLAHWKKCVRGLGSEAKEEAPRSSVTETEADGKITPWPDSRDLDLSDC"}, "source": "BindingDB's records for doi:10.1021/jm991074s", "about": "(University of Catania, 2000)", "molecular_target": "Cannabinoid receptor 2 (Homo sapiens, UniProt P34972)", "test": "Binding affinity towards cloned human cannabinoid receptor 2"}
{"smiles": "C=C(C)[C@@H]1CCC(C)=C[C@H]1c1c(O)cc(CCCCC)cc1O", "values": [{"measurement": "Ki", "result": 2900, "unit": "nM"}]}
